Reference: publication PMC3646547 (Nature communications, 2012)

T1: MHF1^1-107 (truncated MHF1 with the C-terminal 31 residues deleted) (human, UniProt Q8N2Z9 1-107)
T1 sequence (looked up): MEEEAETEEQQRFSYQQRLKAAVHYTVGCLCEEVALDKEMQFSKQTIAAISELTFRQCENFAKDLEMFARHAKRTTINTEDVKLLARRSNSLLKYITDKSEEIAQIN

T2: FANCM^661-800 (human, UniProt Q8IYD8 661-800)
T2 sequence (looked up): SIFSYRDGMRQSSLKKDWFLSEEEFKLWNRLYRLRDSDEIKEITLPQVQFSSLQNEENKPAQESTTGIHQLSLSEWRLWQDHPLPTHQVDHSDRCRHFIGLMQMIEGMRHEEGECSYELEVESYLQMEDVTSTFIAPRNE

T3: MHF1^1-114 (SeMet derivative) (human, UniProt Q8N2Z9 1-114, selenomethionine (SeMet-derivative protein))
T3 sequence (looked up): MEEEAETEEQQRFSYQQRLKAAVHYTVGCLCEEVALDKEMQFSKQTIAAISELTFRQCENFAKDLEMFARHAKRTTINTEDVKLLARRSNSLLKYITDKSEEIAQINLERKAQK

B1: MHF2 (natural protein, human)
chain: MEGAGAGSGFRKELVSRLLHLHFKDDKTKVSGDALQLMVELLKVFVVEAAVRGVRQAQAEDALRVDVDQLEKVLPQLLLDF
B2: MHF2 (SeMet derivative) (natural protein, human)
chain: B1 chain
modifications: selenomethionine (SeMet-derivative protein)

Legend:
Experiment in all cases: crystal structure
[1] = target: T1, MHF1^1-107 (truncated MHF1 with the …)
FANCM^661-800 = target: T2, FANCM^661-800
[2] = target: T3, MHF1^1-114 (SeMet derivative)

Binder | binding result [1] | binding result (FANCM^661-800) | binding result [2]
B1 | binds | – | –
B2 | – | binds | binds
